Test system: primary HSCs

Question: What does the source list for `Cc1sc2c(c1C)C(c1ccc(Cl)cc1)=N[C@@H](CC(=O)OC(C)(C)C)c1nnc(C)n1-2` [JQ1, (S)-tert-butyl 2-(4-(4-chlorophenyl)-2,3,9-trimethyl-6H-thieno[3,2-f][1,2,4]triazolo[4,3-a][1,4]diazepin-6-yl)acetate]?
Answer: 1110003E01Rik log2(fold_change): 0.49; 1110067D22Rik log2(fold_change): −1.6197; 1190002N15Rik log2(fold_change): 2.603; 1600014C10Rik log2(fold_change): 0.6167; 2310022B05Rik log2(fold_change): 0.4879; 3110003A17Rik log2(fold_change): −0.8881; 4833442J19Rik log2(fold_change): −2.6935; 4930583H14Rik log2(fold_change): −3.5597; 6330406I15Rik log2(fold_change): −0.6004; 9030617O03Rik log2(fold_change): −0.7896; 9930013L23Rik log2(fold_change): −1.8225; A430110N23Rik log2(fold_change): −2.0761; AA467197 log2(fold_change): −4.4808; AI427809 log2(fold_change): −3.8454; AI597468 log2(fold_change): −0.7204; Aard log2(fold_change): 3.152; Abat log2(fold_change): 1.831; Acot11 log2(fold_change): −1.6812; Acpl2 log2(fold_change): −1.7436; Acta1 log2(fold_change): −3.5363; Actg2 log2(fold_change): −4.6695; Adam8 log2(fold_change): −1.8587; Adam12 log2(fold_change): −0.6779; Adam15 log2(fold_change): 0.5692; Adamts5 log2(fold_change): 2.155; Adamts12 log2(fold_change): −2.111; Adamtsl2 log2(fold_change): −3.4377; Adcy1 log2(fold_change): −2.5482; Adcy5 log2(fold_change): −2.5661; Adcy7 log2(fold_change): −2.1951; Adora2b log2(fold_change): −0.7993; Afap1l2 log2(fold_change): 0.6954; Aga log2(fold_change): −0.681; Ahdc1 log2(fold_change): 0.5362; Aif1l log2(fold_change): −2.2243; Ak3 log2(fold_change): −0.7666; Ak4 log2(fold_change): −3.0575; Akap5 log2(fold_change): −1.6481; Aldh1a1 log2(fold_change): 2.982; Aldh1a2 log2(fold_change): −1.7827; Aldh1l1 log2(fold_change): −1.8083; Aldh1l2 log2(fold_change): −1.9695; Alox5ap log2(fold_change): −3.3781; Angpt4 log2(fold_change): −3.5318; Ankrd55 log2(fold_change): −1.8294; Anxa6 log2(fold_change): −0.6095; Aoc3 log2(fold_change): −2.7703; Apbb1ip log2(fold_change): −0.3793; Apbb1 log2(fold_change): −0.2271; Apln log2(fold_change): 0.6313; Arhgap11a log2(fold_change): 0.6696; Arhgef6 log2(fold_change): −2.5116; Arhgef10 log2(fold_change): −0.5271; Arhgef17 log2(fold_change): 0.5644; Arhgef25 log2(fold_change): −0.3966; Arl5a log2(fold_change): −0.4698; Arsb log2(fold_change): −0.2842; Arxes2 log2(fold_change): 1.545; Asf1b log2(fold_change): 1.177; Ass1 log2(fold_change): −0.7372; Atoh8 log2(fold_change): 1.079; Atp1a3 log2(fold_change): −2.7352; Atp8b2 log2(fold_change): −0.8035; Aurkb log2(fold_change): 0.763; Avpr1a log2(fold_change): −1.7957; B3galnt1 log2(fold_change): −1.9475; B4galt2 log2(fold_change): −0.4322; BC018242 log2(fold_change): 0.5904; BC031353 log2(fold_change): 0.6117; BC046404 log2(fold_change): 0.7414; Bag2 log2(fold_change): −1.5931; Bambi log2(fold_change): 0.7735; Barx1 log2(fold_change): 0.8268; Basp1 log2(fold_change): 0.477; Bcat1 log2(fold_change): −3.7612; Bcmo1 log2(fold_change): 0.9338; Bdnf log2(fold_change): −1.874; Bicc1 log2(fold_change): 0.7762; Birc5 log2(fold_change): 0.8496; Bnip3 log2(fold_change): −1.6903; Boc log2(fold_change): −0.5044; Bphl log2(fold_change): 0.5126; Btg2 log2(fold_change): −0.6709; Bub1 log2(fold_change): 0.8389; C1qtnf1 log2(fold_change): −0.6473; C1qtnf2 log2(fold_change): −3.7007; C1qtnf5 log2(fold_change): −3.0319; C1qtnf6 log2(fold_change): −0.6741; C330027C09Rik log2(fold_change): 0.4526; Cacng7 log2(fold_change): −2.1628; Cadm4 log2(fold_change): 0.6865; Casc4 log2(fold_change): 0.8788; Casp12 log2(fold_change): −1.8685; Cav1 log2(fold_change): −0.748; Cbx5 log2(fold_change): 0.4317; Ccbe1 log2(fold_change): −0.5091; Ccdc104 log2(fold_change): −0.5601; Ccdc109b log2(fold_change): −0.6411; Cck log2(fold_change): −6.933; Ccl12 log2(fold_change): −6.5143; Ccnb2 log2(fold_change): 0.6449; Ccnd2 log2(fold_change): −0.5059; Ccnf log2(fold_change): 0.7858; Ccng1 log2(fold_change): −0.4404; Cd248 log2(fold_change): 1.021; Cd276 log2(fold_change): −1.8166; Cdc42bpa log2(fold_change): −0.8213; Cdc45 log2(fold_change): 0.4758; Cdca3 log2(fold_change): 0.7846; Cdca5 log2(fold_change): 0.9051; Cdh3 log2(fold_change): −3.6022; Cdh6 log2(fold_change): −2.8188; Cdh11 log2(fold_change): −1.6934; Cdk1 log2(fold_change): 0.6368; Cdkn2b log2(fold_change): −0.8634; Cdkn2c log2(fold_change): 0.4351; Cdon log2(fold_change): 0.8474; Celf2 log2(fold_change): −0.3778; Cend1 log2(fold_change): 0.6977; Cenpe log2(fold_change): 0.7813; Cenph log2(fold_change): 0.7387; Cep55 log2(fold_change): 0.863; Cercam log2(fold_change): −1.5652; Chaf1a log2(fold_change): 0.7923; Chd3 log2(fold_change): −2.985; Chpf log2(fold_change): −0.2699; Chst11 log2(fold_change): −3.0832; Chst12 log2(fold_change): −0.5147; Chst14 log2(fold_change): −0.7675; Chsy3 log2(fold_change): −0.2788; Ckap2l log2(fold_change): 0.4836; Ckap2 log2(fold_change): 0.9355; Ckap4 log2(fold_change): −0.8382; Ckb log2(fold_change): 0.5731; Cks1b log2(fold_change): 0.6346; Clca1 log2(fold_change): 0.964; Cnn1 log2(fold_change): −4.9341; Cnn2 log2(fold_change): −0.8993; Cnrip1 log2(fold_change): −0.3622; Col1a1 log2(fold_change): −1.6234; Col4a5 log2(fold_change): −0.457; Col5a1 log2(fold_change): −0.8039; Col5a2 log2(fold_change): −0.8766; Col6a1 log2(fold_change): −0.6543; Col6a2 log2(fold_change): −2.928; Col6a3 log2(fold_change): −3.296; Col7a1 log2(fold_change): −3.6642; Col8a1 log2(fold_change): −0.785; Col11a1 log2(fold_change): −3.7267; Col12a1 log2(fold_change): −2.2532; Col14a1 log2(fold_change): 1.793; Col15a1 log2(fold_change): −5.116; Col16a1 log2(fold_change): −1.703; Colec11 log2(fold_change): 0.6872; Copz2 log2(fold_change): −0.2374; Cpe log2(fold_change): −0.791; Cplx2 log2(fold_change): −2.4716; Cpt1c log2(fold_change): 0.6903; Cpz log2(fold_change): −0.7891; Crispld2 log2(fold_change): −2.4734; Crlf1 log2(fold_change): −2.4669; Csdc2 log2(fold_change): −2.6599; Csrp1 log2(fold_change): −0.6997; Csrp2 log2(fold_change): −0.3485; Cthrc1 log2(fold_change): −5.0344; Ctnnbip1 log2(fold_change): 0.48; Cul7 log2(fold_change): −0.3304; Cxx1c log2(fold_change): −0.3988; Cyb5r3 log2(fold_change): 0.5722; Cygb log2(fold_change): −0.7185; Cyp1b1 log2(fold_change): 0.4116; Cyp51 log2(fold_change): −0.6376; D2Ertd750e log2(fold_change): 0.7447; D4Bwg0951e log2(fold_change): −0.2667; D430019H16Rik log2(fold_change): −2.685; Dact3 log2(fold_change): 0.4719; Dag1 log2(fold_change): 0.5373; Dcaf12l1 log2(fold_change): −0.7149; Dcbld2 log2(fold_change): 0.5265; Dcxr log2(fold_change): 0.5145
